Measurements taken from patent US20140127174A1 (ZEALAND PHARMA A S, published 2014).

Tests used:
[1] = target: human glucagon-like peptide 1 receptor (GLP-1-R) (human) (UniProt P43220); test: cell-based or functional assay
[2] = target: human glucagon receptor (Glucagon-R) (human) (UniProt P47871); test: cell-based or functional assay

EC50 of cAMP formation in HEK293 cells expressing human GLP-1-R [1]: 0.02 nM | EC50 of cAMP formation in HEK293 cells expressing human Glucagon-R [2]: > 1000 nM
Substance: Exendin-4 (from UniProt P26349) (peptide)
